Measurements reported in publication PMC4161151 (Journal of Medicinal Chemistry, 2014).
≈ marks a conversion by molar mass, not a printed value.

Assay: Kinetic solubility, 96-well plate assay
Assay type: physicochemical
Conditions: phosphate buffer, pH 7.4

**Q.** Which solubility at 90 min does the source give for `CC(C)[C@@H](CN1CC[C@@](C)(c2cccc(F)c2)[C@@H](C)C1)NC(=O)[C@H]1Cc2ccc(O)cc2CN1` [Compound 5, (3R)-N-[(1S)-1-{[(3R,4R)-4-(3-Fluorophenyl)-3,4-dimethylpiperidin-1-yl]methyl}-2-methylpropyl]-7-hydroxy-1,2,3,4-tetrahydroisoquinoline-3-carboxamide] here?
**A.** 10 µM (≈ 4.68 µg/mL)
